The text below walks through data of patent US10918713B2, “Epitopes from allergen proteins and methods and uses for immune response modulation” (LA JOLLA INSTITUTE FOR ALLERGY AND IMMUNOLOGY, priority 2012, dated 2021).

Amino acid sequences for entries named in this document (tags omitted). Residues count along the entry.
UniProt P01920, 33-261 with the stated changes: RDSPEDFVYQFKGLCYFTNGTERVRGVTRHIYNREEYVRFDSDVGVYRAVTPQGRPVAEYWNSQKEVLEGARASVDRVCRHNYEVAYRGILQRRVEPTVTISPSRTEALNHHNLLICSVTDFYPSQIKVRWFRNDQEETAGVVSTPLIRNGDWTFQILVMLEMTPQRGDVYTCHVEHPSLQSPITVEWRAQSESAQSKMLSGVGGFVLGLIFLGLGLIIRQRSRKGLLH

The assay addresses DQA1*0101/DQB1*0501 (Homo sapiens, UniProt P01909+P01920, A157S/A45G/A70V/C70R/D89V/E106S/E118A/E183D/E77G/F83G/G63E/H151Q/H199R/H252R/H253Q/I129T/I235V/I88M/INS77G/K197Q/L107V/L117V/L119Y/L178F/L71W/L74F/L85Q/L91A/L98M/M46L/N214S/P87R/Q116E/Q256R/Q57E/Q76K/R102G/R240Q/R75S/R78G/S102Y/S185I/S41F/S97I/T103A/T109R/T121G/T122I/T172A/T86R/V148I/V68A/V73E/Y34C/Y58G/Y62H). Description: biochemical.

A word on the IC50: it is the concentration that gives 50% inhibition. Read a low IC50 as greater potency in that assay. In turn, `CC[C@H](C)[C@H](NC(=O)[C@H](Cc1ccc(O)cc1)NC(=O)[C@H](C)NC(=O)[C@H](CC(=O)O)NC(=O)[C@H](C)NC(=O)[C@@H](NC(=O)CNC(=O)[C@@H](N)CCC(N)=O)C(C)C)C(=O)N[C@H](C(=O)N[C@@H](CC(C)C)C(=O)N[C@H](C(=O)N[C@H](C(=O)N[C@@H](CC(C)C)C(=O)N1CCC[C@H]1C(=O)N[C@@H](CCCCN)C(=O)O)[C@@H](C)O)C(C)C)[C@@H](C)O` [3324.0011] yielded an IC50 of 8.01 µM.
In turn, `CC[C@H](C)[C@H](N)C(=O)N[C@@H](C)C(=O)N[C@@H](CO)C(=O)N[C@@H](CC(C)C)C(=O)N[C@@H](Cc1ccccc1)C(=O)N[C@@H](C)C(=O)N[C@@H](C)C(=O)N[C@@H](C)C(=O)NCC(=O)N[C@@H](CC(C)C)C(=O)N[C@@H](C)C(=O)N[C@@H](C)C(=O)N[C@@H](C)C(=O)N[C@@H](C)C(=O)N1CCC[C@H]1C(=O)O` [3324.0015] showed an IC50 of 24.1 µM.
